Organism: Cavia porcellus
Conditions: Cardiac atrium

For C[C@@H]1C[C@H]2[C@@H]3CCC4=CC(=O)C=C[C@]4(C)[C@@]3(F)[C@@H](O)C[C@]2(C)[C@@]1(O)C(=O)CO [DEXAMETHASONE], which Log B/F is on record?
The Log B/F was 0.362.
